Where “and” joins values, the source holds several entries; their conditions need not be identical. Identical values can stand only once.
Test system: SOD1 transgenic mice
Settings: riluzole 30 mg/kg per day, drinking water from 60 days of age, N=15
Experimental: Another group of 15 mice served as controls.
The drugs were administered by drinking water starting at 60 days of age. The daily dosages were calculated based on a daily water intake of 6 ml. Fresh solutions were prepared once a week with the total consumed volume measured in order to ensure a constant daily and weekly dose. […] The study was done blindly, meaning that the treatment and the preparation of the drugs were conducted by separate individuals.
The clinical condition of the mice was monitored daily starting at 40 days. The onset of clinical signs was scored by examining the mice for tremors and/or shaking of the limbs, and the position of one or both hind limbs (hanging rather than splaying out) when the mice were suspended in the air by their tail. The age of clinical onset was determined by the age (days) at which loss of splay or tremors of hind limbs were observed. Examining the mice for the loss of righting reflex determined the end stage of the disease. […] The treatment and clinical evaluation were conducted by separate individuals, and thus the neurological signs for determining onset and end stage of disease were scored in a blinded manner.
Data are expressed as the mean +/−standard error of the mean (SEM). […] Survival data were analysed by the Mantel-Cox proportional hazard model. […]

Nc1nc2ccc(OC(F)(F)F)cc2s1 [riluzole, 2-amino-6-trifluoromethoxy benzothiazole]
Mean Survival: 234 days and 233.6 days and 233.6000 days

Reference: patent US20040127577A1, “Use of rasagiline with or without riluzole to treat amyotrophic lateral sclerosis” (priority 2002, published 2004)
